Source: ChEMBL document CHEMBL4699404, “Arylsulfonyl histamine derivatives as powerful and selective alpha-glucosidase inhibitors” (RSC Med Chem, 2020)

Chains of the proteins cited; added tags and fusions are not shown. Lines headed by an entry give the natural chain unless they say otherwise; changes in a name come on top.
UniProt O42275: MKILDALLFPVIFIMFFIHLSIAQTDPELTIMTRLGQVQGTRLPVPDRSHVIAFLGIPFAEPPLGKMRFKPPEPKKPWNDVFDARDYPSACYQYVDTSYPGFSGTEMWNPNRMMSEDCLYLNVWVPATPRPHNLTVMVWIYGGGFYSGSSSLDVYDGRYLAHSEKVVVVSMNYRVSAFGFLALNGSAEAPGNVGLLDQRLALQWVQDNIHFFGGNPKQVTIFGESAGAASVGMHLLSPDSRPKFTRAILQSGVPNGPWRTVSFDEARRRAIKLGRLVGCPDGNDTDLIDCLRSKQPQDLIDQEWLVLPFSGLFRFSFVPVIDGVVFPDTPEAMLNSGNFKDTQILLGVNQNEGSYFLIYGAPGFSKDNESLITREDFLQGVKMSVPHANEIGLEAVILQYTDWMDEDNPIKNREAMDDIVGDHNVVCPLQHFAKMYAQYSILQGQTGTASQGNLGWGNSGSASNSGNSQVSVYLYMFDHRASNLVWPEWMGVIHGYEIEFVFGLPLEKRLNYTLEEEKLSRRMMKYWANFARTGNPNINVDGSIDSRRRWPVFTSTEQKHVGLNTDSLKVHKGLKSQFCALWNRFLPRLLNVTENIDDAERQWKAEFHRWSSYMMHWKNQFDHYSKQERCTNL

Target: Acetylcholinesterase (Electrophorus electricus, UniProt O42275)

## CNC(=O)Oc1ccc2c(c1)[C@]1(C)CCN(C)[C@@H]1N2C [PHYSOSTIGMINE]
  IC50: 1170 nM
